Experimental data as given in patent publication US10471046B2, “Method for treating, preventing, or reducing the risk of skin infection” (Melinta Subsidiary Corp., priority 2014, dated 2019).
Converted amounts (≈) assume the structure as drawn. Like-named read-outs stand apart in the source and are kept apart here.

Columns and labels:
B. thetaiotaomicron [1] = assay: microbe, parasite or virus in culture; assay type: cell-based; conditions: Bacteroides thetaiotaomicron, ATCC29741, read-out: MIC, agar dilution
B. thetaiotaomicron [2] = assay: microbe, parasite or virus in culture; assay type: cell-based; conditions: Bacteroides thetaiotaomicron, ATCC29741, read-out: MIC, broth microdilution

Row | Compound | MIC (B. thetaiotaomicron [1]) [µg/mL] | MIC (B. thetaiotaomicron [2]) [µg/mL]
1 | CCC[C@@H]1C[C@@H](C(=O)N[C@@H]([C@H]2O[C@H](SC)[C@H](O)[C@@H](O)[C@H]2O)[C@H](C)Cl)N(C)C1 [Clindamycin, clindamycin] | 8 (≈ 18.8 µM) | 8 (≈ 18.8 µM)
2 | CC(=O)NC[C@H]1CN(c2ccc(N3CCOCC3)c(F)c2)C(=O)O1 [Linezolid, linezolid] | 4 (≈ 11.9 µM) | 4 (≈ 11.9 µM)
